The record followed here is US8258155B2, “Quinine sulfate/bisulfate solid complex; methods of making; and methods of use thereof” (Mutual Pharmaceutical Company, Inc., priority 2008, dated 2012).

With “quinine bisulfate tartaric acid co-crystal”, the “water solubility at room temperature” value is on record as “about 200 milligrams per milliliter”.
In the case of “quinine sulfate acetic acid co-crystal monohydrate (2quinine.H2SO4.CH3COOH.H2O)”, the “water solubility at room temperature” value was “about 2 milligrams per milliliter”.
